The record followed here is paper PMC7158214 (Clinical Pharmacology and Therapeutics, 2020).

The test system of the data set is OATP1B. Nature of the data set: Nonlinear regression of AUCR^-1 vs rifampicin Cmax. The conditions noted are these: from AUCR based on AUC0-24h. The format is in vivo, human.

As for coproporphyrin I [CP-I], the “fRIF (fraction sensitive to inhibition by rifampicin)” value was determined as 0.943 ± 0.072.
